Literature values as cited in US7049092B1 (priority 1999, dated 2006).

Target: hormone-sensitive lipase
Conditions: read-out: IC50 (concentration producing 50% inhibition)

Structure (SMILES): [F-].[Na+] [NaF (sodium fluoride), sodium fluoride]
- IC50: 25 mM
